Results: patent publication US9809653B2, “Anti-LAMP1 antibodies and antibody drug conjugates, and uses thereof” (SANOFI, priority 2012, dated 2017)

What was measured:
[1] = test system: human primary invasive ductal carcinoma BRE-IGR-0159; assay: Anti-tumor activity against human primary invasive ductal carcinoma BRE-IGR-0159; settings: for Average body weight change in % per mouse at nadir (day of nadir): nadir day 17; for Median ΔT/ΔC in % day: day 35
[2] = test system: primary human colon adenocarcinoma CR-LRB-010P; assay: Anti-tumor activity against primary human colon adenocarcinoma CR-LRB-010P; settings: day 19
Excerpt: Control groups were left untreated. […] Animal body weights included the tumor weights. Tumor volumes were estimated from 2 dimensional tumor measurements and calculated according to the following formula (Corbett, T. H. et al., 1977, Cancer 40: 2660-2680): Tumor volume (mm^3)=[Length (mm)×Width^2 (mm^2)]/2. The primary efficacy end points are ratio of change in tumor volume changes from baseline between treated and control groups (ΔT/ΔC), percent median regression, partial regression (PR) and complete regression (CR).
Changes in tumor volume for each treated (T) and control (C) are calculated for each tumor by subtracting the tumor volume on the day of first treatment from the tumor volume on the specified observation day. The median ΔC is calculated for the untreated control group and the median ΔT is calculated for the treated group. Then the ratio ΔT/ΔC is calculated and expressed as a percentage: ΔT/ΔC=(delta T/delta C)×100 as described before
The dose is considered as therapeutically active when ΔT/ΔC is lower than 40% and very active when ΔT/ΔC is lower than 10%.
% tumor regression: is defined as the % of tumor volume decrease in the treated group at a specified observation day compared to its volume on the first day of first treatment.
At a specific time point and for each animal, % regression is calculated. The median % regression is then calculated for the group.
Partial regression (PR): Regressions are defined as partial if the tumor volume decreases to 50% of the tumor volume at the start of treatment.
Complete regression (CR): Complete regression is achieved when tumor volume=0 mm^3 (CR is considered when tumor volume cannot be recorded).
Control groups were left untreated.

[3] = target: T1, LAMP1 (SEQ ID NO: 28 protein) (Homo sapiens, UniProt P11279); assay: Affinity to LAMP1 by SPR (BIAcore 2000); type: binding
T1 construct: made in house; host or cells: HEK293 (293-F), transient expression, IMAC-purified
T1 sequence (P11279 with tags, fused parts or gaps): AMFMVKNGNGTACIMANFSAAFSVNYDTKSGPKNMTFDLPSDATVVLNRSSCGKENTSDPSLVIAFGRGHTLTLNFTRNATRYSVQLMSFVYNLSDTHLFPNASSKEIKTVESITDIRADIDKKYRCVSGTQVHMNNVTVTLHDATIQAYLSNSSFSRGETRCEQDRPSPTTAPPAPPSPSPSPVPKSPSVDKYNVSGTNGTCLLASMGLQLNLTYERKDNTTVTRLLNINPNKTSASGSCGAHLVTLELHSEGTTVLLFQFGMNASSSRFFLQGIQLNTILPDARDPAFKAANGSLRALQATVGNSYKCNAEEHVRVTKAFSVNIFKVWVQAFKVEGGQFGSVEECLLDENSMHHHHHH
Method: The use of surface plasmon resonance to determine is known to the skilled in the art. In one example the binding kinetics of for example the murine, chimer or humanized anti-LAMP1 mAbs were determined by surface plasmon resonance assay using typically a BIAcore 2000 (BIAcore Inc., Uppsala, N.J.). Therefore, for example a CM5 BIAcore biosensor chip was docked into the instrument and activated with for example 70 μL of 1:1 NHS/EDC at room temperature. Typically, a mouse anti-αhuman Fc IgG1 (BIAcore #BR-1008-39) and rabbit anti-αmurine Fc IgG1 (BIAcore #BR-1008-38) (50 μg/mL in 1 M acetate buffer, pH5) were immobilized on the activated chips in all flow cells. The immobilization was carried out at a flow rate of for example 10 μL/min up to saturation. The chip was then blocked by for example injection of 70 μL of ethanolamine-HCl, pH 8.5, followed by one wash with 3 M MgCl2 for anti-αhuman Fc IgG1 and one wash with 10 mM Glycine-HCl pH 1.7 for anti-αmurine Fc IgG1. To measure the binding of for example anti-LAMP1 mAbs to LAMP1, antibodies were used at 1-5 μg/mL in BIAcore running buffer (HBS-EP). The antigen for example (Sequence ID No 28 protein produced as described in example 6.2) was injected from for example 1 to 256 nM. Following completion of the injection phase, dissociation was monitored in a BIAcore running buffer at the same flow rate for typically 600 sec. The surface was typically regenerated between injections using for example 2×5 μL 3 M MgCl2 (2×30 s) or anti-αhuman Fc IgG1 and 1×30 μL 10 mM Glycine-HCl pH 1.7 for anti-αmurine Fc IgG1 (180 s). Individual sensorgrams were typically analyzed using BIAevaluation software.
The binding kinetics of the murine, chimer or humanized anti-LAMP1 mAbs were determined by surface plasmon resonance assay using a BIAcore 2000 (BIAcore Inc., Uppsala, N.J.). Briefly, a CM5 BIAcore biosensor chip was docked into the instrument and activated with 70 μL of 1:1 NHS/EDC at room temperature. A mouse anti-αhuman Fc IgG1 (BIAcore #BR-1008-39) and rabbit anti-αmurine Fc IgG1 (BIAcore #BR-1008-38) (50 μg/mL in 1 M acetate buffer, pH5) were immobilized on the activated chips in all flow cells. The immobilization was carried out at a flow rate of 10 μL/min up to saturation. The chip was then blocked by injection of 70 μL of ethanolamine-HCl, pH 8.5, followed by one wash with 3 M MgCl2 for anti-αhuman Fc IgG1 and one wash with 10 mM Glycine-HCl pH 1.7 for anti-αmurine Fc IgG1. To measure the binding of anti-LAMP1 mAbs to LAMP1, antibodies were used at 1-5 μg/mL in BIAcore running buffer (HBS-EP). […] Following completion of the injection phase, dissociation was monitored in a BIAcore running buffer at the same flow rate for 600 sec. […] Individual sensorgrams were analyzed using BIAevaluation software.

[4] = DM4-SPDB-chMAb2 5 mg/kg single IV
[5] = DM4-SPDB-chMAb2 10 mg/kg single IV

B1: DM4-SPDB-chMAb2 (conjugate)
heavy: QVQLQQSAAELARPGASVKMSCKASGYTFTSYTMHWVKQRPGQGLEWIGYFNPSSGYPEYNQKFKDKTTLTADKSSNTAFIQLNSLTSEDSAVYYCSRGYYYGSRGYALDFWGQGTSVTVSSASTKGPSVFPLAPSSKSTSGGTAALGCLVKDYFPEPVTVSWNSGALTSGVHTFPAVLQSSGLYSLSSVVTVPSSSLGTQTYICNVNHKPSNTKVDKKV[not shown - human IgG1 Fc]
light: NIVLTQSPASLAVSLGQRATISCRASESVDINGNTFMHWYQQKPGQSPKLLIYAASNLESGVPARFSGSGSGTDFTFTIDPVEADDVATYYCQQNIEDPWTFGGGTKLEIKRTVAAPSVFIFPPSDEQLKSGTASVVCLLNNFYPREAKVQWKVDNALQSGNSQESVTEQDSKDSTYSLSSTLTLSKADYEKHKVYACEVTHQGLSSPVTKSFNRGEC
For B1, the “Regressions Complete” value ([1]; 5.0 mg/kg IV, day 14) was 6/6, the “Regressions Partial” value ([1]; 5.0 mg/kg IV, day 14) was 6/6 and the “Median % of regression on day 24” value ([1]; 5.0 mg/kg IV, day 14) was 100%. The “Median ΔT/ΔC in % day 24” value ([1]; 5.0 mg/kg IV, day 14) was <0%, the “Tumor Free survivor on day 124” value ([1]; 5.0 mg/kg IV, day 14) was 6/6 and the “Average body weight change in % per mouse at nadir (day of nadir)” value ([1]; 5.0 mg/kg IV, day 14) was −6.9 (17) %. The “Drug death (Day of death)” value ([1]; 5.0 mg/kg IV, single injection day 14) was 0/6, the “Regressions Complete” value ([1]; 10.0 mg/kg IV, day 14) was 5/5 and the “Regressions Partial” value ([1]; 10.0 mg/kg IV, day 14) was 5/5. The “Median % of regression on day 24” value ([1]; 10.0 mg/kg IV, day 14) was 100%, the “Median ΔT/ΔC in % day 24” value ([1]; 10.0 mg/kg IV, day 14) was <0% and the “Tumor Free survivor on day 124” value ([1]; 10.0 mg/kg IV, day 14) was 5/5. For the same molecule, the “Average body weight change in % per mouse at nadir (day of nadir)” value ([1]; 10.0 mg/kg IV, day 14) was −5.2 (17) %, the “Drug death (Day of death)” value ([1]; 10.0 mg/kg IV, single injection day 14) was 0/6 and the “Drug death (Day of death)” value [2, 4] was 0/6. For the same molecule, the “Regressions Complete” value [2, 4] was 0/6, the “Regressions Partial” value [2, 4] was 0/6 and the “Median ΔT/ΔC in % day” value ([2]; DM4-SPDB-chMAb2 5 mg/kg single IV, day 28, 5 mg/kg) was 10% and 10 (28) %. For the same molecule, the “Average body weight change in % per mouse at nadir (day of nadir)” value ([2]; DM4-SPDB-chMAb2 5 mg/kg single IV, nadir day 37) was −2.4 (37) %, the “Drug death (Day of death)” value [2, 5] was 0/6 and the “Regressions Complete” value [2, 5] was 0/6. The “Regressions Partial” value [2, 5] was 1/6, the “Median % of regression on day” value ([2]; DM4-SPDB-chMAb2 10 mg/kg single IV, day 31) was 36 (31) % and the “Median ΔT/ΔC in % day” value ([2]; DM4-SPDB-chMAb2 10 mg/kg single IV, day 31, 10 mg/kg) was < 0% and <0 (31) %. The “Average body weight change in % per mouse at nadir (day of nadir)” value ([2]; DM4-SPDB-chMAb2 10 mg/kg single IV, nadir day 20) was −1.6 (20) %.

B2: chMAb2can: chimeric antibody from MAb2can, heavy chain SEQ ID NO: 21, light chain SEQ ID NO: 22 (antibody)
heavy: B1 heavy
light: B1 light
modifications: antibody fragment
B2 gave a ka [3] of 72100 M⁻¹ s⁻¹ and a kd [3] of 0.00496 s⁻¹.

B3: chMAb3VL_R24_R93: chimeric antibody, heavy chain SEQ ID NO: 49, light chain SEQ ID NO: 81 (antibody)
heavy: QIQLVQSGPELKKPGETVKISCKASGYIFTNYGMNWVKQAPGKGLKWMGWINTYTGESRYADDFKGRFALSLETSASTAYLQINNLENEDMATYFCAREDYYGNSPWFFDVWGAGTTVTVSSASTKGPSVFPLAPSSKSTSGGTAALGCLVKDYFPEPVTVSWNSGALTSGVHTFPAVLQSSGLYSLSSVVTVPSSSLGTQTYICNVNHKPSNTKVDKKV[not shown - human IgG1 Fc]
light: DIQMTQTTSSLSASLGDRVTISCRASQGINKYLNWYQQKPDGTVKLLIYYTSTLHSGVPSRFSGSGSGTDYSLTINNLEPEDIATYYCQQYTRLPFTFGSGTKLEIKRTVAAPSVFIFPPSDEQLKSGTASVVCLLNNFYPREAKVQWKVDNALQSGNSQESVTEQDSKDSTYSLSSTLTLSKADYEKHKVYACEVTHQGLSSPVTKSFNRGEC
modifications: HC chMAb3; chimeric
Work on B3 yielded a ka [3] of 173000 M⁻¹ s⁻¹ and a kd [3] of 0.00125 s⁻¹.

B4: DM4-SPDB-chMAb3 (conjugate)
heavy: B3 heavy
light: B3 light
In the case of B4, the “Regressions Complete” value ([1]; 1.25 mg/kg IV, day 16) is reported as 6/6, the “Regressions Partial” value ([1]; 1.25 mg/kg IV, day 16) is reported as 6/6 and the “Median ΔT/ΔC in % day” value ([1]; 1.25 mg/kg IV, day 16) is reported as <0 (35) %. For the same molecule, the “Tumor free survivors day 76” value ([1]; 1.25 mg/kg IV, day 16) was 2/6, the “Average body weight change in % per mouse at nadir (day of nadir)” value ([1]; 1.25 mg/kg IV, day 16) was −1.7 (17) % and the “Drug death (Day of death)” value ([1]; 1.25 mg/kg IV, single injection day 16) was 0/6. The “Regressions Complete” value ([1]; 5.0 mg/kg IV, day 16) was 6/6, the “Regressions Partial” value ([1]; 5.0 mg/kg IV, day 16) was 6/6 and the “Median ΔT/ΔC in % day” value ([1]; 5.0 mg/kg IV, day 16) was <0 (35) %. For the same molecule, the “Tumor free survivors day 76” value ([1]; 5.0 mg/kg IV, day 16) was 6/6, the “Average body weight change in % per mouse at nadir (day of nadir)” value ([1]; 5.0 mg/kg IV, day 16) was −2.8 (17) % and the “Drug death (Day of death)” value ([1]; 5.0 mg/kg IV, single injection day 16) was 0/6.

Values joined by “and” are separate entries in the source; they are usually repeats but may differ in a detail not shown here. Identical values can stand only once.
